For one data set, the system named is HCT-15 tumors. The note with it: 4 nmol into tail vein, 15 min circulation; for accumulation in HTC-15 tumors compared to normal tissue (europium content): perfused; for europium signal in kidney: due to excretion of the agent; for tumor-to-muscle ratio (europium content): HTC-15 tumors.
Data set [1] concerns HCT-15-LM1 lung metastases. The following applies: 4 nmol into tail vein, 15 min circulation; for accumulation in HCT-15-LM1 lung metastases compared to normal tissue (europium content): perfused.

Consider two substances from patent US20070258899A1, “Diagnostic and therapeutic agents” (KARYON-CTT LTD, priority 2006, published 2007).

With “Ac-aYGFVWGEE-(Teg-Glu)2-AMB-DTPA-Eu [MJ017]”, in the data set with HCT-15 tumors, the “accumulation in HTC-15 tumors compared to normal tissue (europium content)” value was “accumulated strongly and selectively”; the “europium signal in kidney” value is “high signal”; the “tumor-to-muscle ratio (europium content)” value is recorded as “high”. Besides, in data set [1], the “ratio of lung metastase Eu-content to-muscle Eu-content” value is 4.1; the “accumulation in HCT-15-LM1 lung metastases compared to normal tissue (europium content)” value is “accumulated strongly and selectively”.

As to “a*YGFVWGEE*-(Teg-E)2-AMB-DTPA-Eu [MJ018]”, in the data set on HCT-15 tumors, the “accumulation in HTC-15 tumors compared to normal tissue (europium content)” value was “accumulated strongly and selectively”; the “europium signal in kidney” value is “high signal”; the “tumor-to-muscle ratio (europium content)” value is “high”. Further, in data set [1], the “accumulation in HCT-15-LM1 lung metastases compared to normal tissue (europium content)” value was “accumulated strongly and selectively”.
